Experiments:
[1] = tested on: CO/N=C(\C(=O)N[C@@H]1C(=O)N2C(C(=O)[O-])=C(C[N+]3(C)CCCC3)CS[C@H]12)c1csc(N)n1; experiment: (§1) Hydrolytic activity of beta-lactamase VIM-1 in Escherichia coli DH5alpha expressing pBCLL/39H by microacidimetric method
[2] = tested on: C[C@@H](O)[C@H]1C(=O)N2C(C(=O)O)=C(SCCNC=N)C[C@H]12; experiment: as §1
[3] = tested on: C[C@@H](O)[C@H]1C(=O)N2C(C(=O)O)=C(S[C@@H]3CN[C@H](C(=O)N(C)C)C3)[C@H](C)[C@H]12; experiment: as §1
[4] = tested on: CO/N=C(\C(=O)N[C@@H]1C(=O)N2C(C(=O)[O-])=C(C[N+]3(C)CCCC3)CS[C@H]12)c1csc(N)n1; experiment: (§2) Ratio of Kcat to Km for beta-lactamase VIM-1 in Escherichia coli DH5alpha expressing pBCLL/39H by microacidimetric method
[5] = tested on: C[C@@H](O)[C@H]1C(=O)N2C(C(=O)O)=C(SCCNC=N)C[C@H]12; experiment: as §2

BlaVIM-1 (Escherichia coli) (from UniProt Q8GDC1)
kcat [1]: 549 s⁻¹ | kcat [2]: 2 s⁻¹ | kcat [3]: 13 s⁻¹ | kcat/Km [4]: 3.8e+06 M⁻¹ s⁻¹ | kcat/Km [5]: 1.3e+06 M⁻¹ s⁻¹

Source: ChEMBL document CHEMBL1212777, “Novel VIM metallo-beta-lactamase variant from clinical isolates of Enterobacteriaceae from Algeria” (2010)
